# Most compounds without a hit are left out; they make up all but 0.34% or so of the library.
# Cneo AK release – Cryptococcus neoformans lysis via adenylate kinase release; C. neoformans lysis, adenylate kinase release luminescence, 4 h; normalised: neutral wells 0, clomiphene wells 100; lysis activity, % at 15 µM; 0.2% of 360,000 active; AID 651654;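 active = mean lysis activity across replicates of at least 80%, whatever share of replicates individually reach that level; inactive = mean lysis activity below 80%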
#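 Test system: log-phase Cryptococcus neoformans yeast cells. Input: 5 × 10^6 yeast cells/mL. Medium: fresh YPD growth medium. Doses: single dose. Incubation: static 4 h at 37 °C with compound, 1 h detection. Measured by: luminescent adenylate kinase detection reagent. Read-out: signal increase indicating cell lysis. Benchmarks: Clomiphene.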
# ERp5 inh – inhibitors of human ERp5; Q15084; 0.05% of 350,000 active; AID 651711; inhibition, % at 9.99 µM; ERp5 insulin aggregation, absorbance 650 nm, 90 min;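 active = mean replicate inhibition above about 25%, with every replicate also reaching it, limit read from the data, passing the limit was not always enough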
# UUG fidelity – alters start codon recognition fidelity in yeast; AID 602363; activity score, % at 18.7 µM; 350,000 tested, 0.13% active; S. cerevisiae UUG-firefly luciferase reporter, luminescence/redox ratio;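 active means replicate mean at a twofold rise or more, about +100% in these data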;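 further: firefly luciferase made from a UUG start codon reports start codon fidelity; reporter light over untreated wells divided by growth signal over untreated wells; some hits fall short of that in this replicate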
# PDI turbidity – inhibitors of human protein disulfide isomerase; 0.052% of 350,000 active; PDI insulin aggregation turbidity, A650, 90 min; P07237; inhibition, % at 10 µM; AID 588391;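 active = mean inhibition across replicates of 30% or more, whatever share of single replicates reach that level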
# The depositor's hits bear a star; / = not tested or not shown; ! = not confirmed by another sample.
# Abbreviations: A = Cneo AK release; B = ERp5 inh; C = UUG fidelity; D = PDI turbidity
Molecule: CCN(CC)S(=O)(=O)c1ccc2c(c1)N(CC(=O)NCCN1CCOCC1)C(=O)CO2
  A: -5.5; B: 27.9*; C: 1.4; D: -2.9

Molecule: COc1ccc(CN(C)C[C@@H]2OCCCC[C@H](C)Oc3ccc(NC(=O)c4ccccc4)cc3C(=O)N([C@H](C)CO)C[C@@H]2C)cc1
  A: -8.2; B: -2.3; C: 30.5; D: /

Molecule: CC(C)NC(=O)Nc1ccc2c(c1)C(=O)N([C@H](C)CO)C[C@H](C)[C@H](CN(C)Cc1ccncc1)OCCCC[C@H](C)O2
  A: 114.2*; B: 0.6; C: /; D: /

Molecule: C[C@H]1CCCCO[C@H](CN(C)Cc2ccncc2)[C@@H](C)CN([C@@H](C)CO)C(=O)c2cc(NC(=O)CCCN(C)C)ccc2O1
  A: 98.3*; B: 1.2; C: 5.3; D: /

Molecule: C[C@@H]1CCCCO[C@@H](CN(C)Cc2ccncc2)[C@@H](C)CN([C@@H](C)CO)C(=O)c2cc(NC(=O)c3ccncc3)ccc2O1
  A: 88.9*; B: -1.0; C: /; D: /

Molecule: COc1ccc(CN(C)C[C@H]2OCCCC[C@@H](C)Oc3ccc(NC(=O)c4ccccc4)cc3C(=O)N([C@H](C)CO)C[C@@H]2C)cc1
  A: 101.9*!; B: -0.7; C: 12.7; D: 5.8

Molecule: CC(C)NC(=O)Nc1ccc2c(c1)C(=O)N([C@H](C)CO)C[C@@H](C)[C@@H](CN(C)Cc1ccncc1)OCCCC[C@H](C)O2
  A: 1.8; B: 4.1; C: /; D: /

Molecule: C[C@@H]1CN([C@@H](C)CO)C(=O)Cc2cc(NS(=O)(=O)c3cccs3)ccc2O[C@H]1CN(C)C(=O)Nc1cccc2ccccc12
  A: -0.2; B: /; C: 16.8; D: /

Molecule: Cc1ccc(S(=O)(=O)N2CC[C@H]3[C@H](CO)Nc4ccc(C#Cc5ccc(F)cc5)cc4[C@H]32)cc1
  A: 8.6; B: 3.3; C: -1.5; D: /

Molecule: C[C@H](CO)N1C[C@H](C)[C@H](CN(C)Cc2ccncc2)Oc2ccc(NC(=O)CCC(F)(F)F)cc2C1=O
  A: 149.1*; B: -2.7; C: 1.5; D: /

Molecule: C[C@H](CO)N1C[C@H](C)[C@@H](CN(C)Cc2ccncc2)OCCCC[C@H](C)Oc2ccc(NC(=O)NC3CCCCC3)cc2C1=O
  A: 110.5*; B: 0.4; C: 15.6; D: /

Molecule: Cc1noc(C)c1S(=O)(=O)Nc1ccc2c(c1)C(=O)N([C@H](C)CO)C[C@H](C)[C@H](CN(C)Cc1ccncc1)O2
  A: 91.0*; B: 8.1; C: 12.4; D: /

Molecule: C[C@@H]1CCCCO[C@@H](CN(C)Cc2ccncc2)[C@@H](C)CN([C@@H](C)CO)C(=O)c2cc(NC(=O)NC3CCCCC3)ccc2O1
  A: -2.5; B: -0.3; C: 19.1; D: /

Molecule: O=C(C[C@H]1CC[C@H]2[C@@H](COC[C@H](O)CN2S(=O)(=O)c2cccc(F)c2)O1)Nc1ccccc1
  A: -1.4; B: -2.4; C: /; D: /

Molecule: O=C(/C=C/c1c(F)cccc1Cl)c1ccc(O)cc1
  A: /; B: -1.1; C: /; D: 79.2*

Molecule: C[C@@H](NC(=O)C[C@@H]1CC[C@@H]2[C@H](COC[C@H](O)CN2Cc2cc(F)ccc2F)O1)c1ccccc1
  A: 112.3*; B: 1.4; C: 28.7; D: /

Molecule: CCCNC(=O)C[C@@H]1CC[C@H]2[C@@H](COC[C@H](O)CN2Cc2ccccc2F)O1
  A: 96.9*; B: 4.4; C: /; D: /

Molecule: C[C@@H](NC(=O)C[C@@H]1CC[C@H]2[C@@H](COC[C@@H](O)CN2Cc2cc(F)ccc2F)O1)c1ccccc1
  A: 101.4*; B: -0.1; C: 34.3; D: /

Molecule: C[C@@H](NC(=O)C[C@H]1CC[C@@H]2[C@H](COC[C@@H](O)CN2Cc2cc(F)ccc2F)O1)c1ccccc1
  A: 1.8; B: 0.8; C: -15.4; D: /

Molecule: C[C@H](NC(=O)C[C@H]1CC[C@H]2[C@@H](COC[C@H](O)CN2Cc2cc(F)ccc2F)O1)c1ccccc1
  A: 0.1; B: -0.1; C: -8.2; D: /

Molecule: O=C(Nc1ccc(Cl)c(Cl)c1)N[C@@H]1CC[C@@H](CCn2cc(C3CCCC3)nn2)O[C@H]1CO
  A: /; B: -0.6; C: /; D: /

Molecule: CC(C)C(NC(=O)c1ccc(F)cc1)C(=O)N1CCOCC1 (stereo unspecified)
  A: 2.1; B: 27.4*; C: -3.2; D: -7.3

Molecule: C[C@H](CO)N1C[C@H](C)[C@@H](CN(C)Cc2ccc(-c3ccccc3)cc2)Oc2ccc(NC(=O)Nc3ccc(C(F)(F)F)cc3)cc2C1=O
  A: 98.7*; B: -2.9; C: 8.2; D: /

Molecule: C[C@@H]1CN([C@H](C)CO)C(=O)c2cc(NC(=O)Nc3ccc(F)cc3)ccc2O[C@H]1CN(C)Cc1ccc(-c2ccccc2)cc1
  A: 0.3; B: 51.4*; C: 0.8; D: /

Molecule: COCC#Cc1cnc2c(c1)C(=O)N([C@H](C)CO)C[C@H](C)[C@H](CN(C)C(C)=O)O2
  A: 0.8; B: 10.6; C: -2.8; D: /

Molecule: O=C(NC1CCCC1)[C@@H]1[C@@H](CO)[C@@H]2Cn3c(ccc(-c4cccnc4)c3=O)[C@H]1N2CC1CC1
  A: 0.1; B: 27.7*; C: /; D: /

Molecule: CCC(=O)N1[C@@H]2Cn3c(ccc(C4=CCCCC4)c3=O)[C@H]1[C@@H](C(=O)N[C@H](C)c1ccccc1)[C@@H]2CO
  A: 93.3*; B: -2.0; C: 25.9; D: /

Molecule: CCC(=O)N1[C@@H]2c3ccc(C4=CCCC4)c(=O)n3C[C@H]1[C@H](CO)[C@H]2C(=O)N[C@H](C)c1ccccc1
  A: 1.4; B: -2.7; C: /; D: /

Molecule: CC(=O)N1[C@@H]2c3ccc(-c4ccccc4)c(=O)n3C[C@H]1[C@H](CO)[C@H]2C(=O)Nc1ccccc1
  A: 87.3*; B: -3.9; C: /; D: /

Molecule: CCCNC(=O)C[C@@H]1C[C@H]2c3cc(NS(=O)(=O)c4ccc(F)cc4)ccc3O[C@H]2[C@H](CO)O1
  A: 0.2; B: 6.5; C: 11.1; D: /

# Fetched by compound from above, three records:
# Abbreviations: A = Cneo AK release; B = ERp5 inh; C = UUG fidelity; D = PDI turbidity
Molecule: CCC(=O)N1[C@@H]2c3ccc(C4=CCCC4)c(=O)n3C[C@H]1[C@H](CO)[C@H]2C(=O)N[C@H](C)c1ccccc1
  A: 1.4; B: -2.7; C: /; D: /

Molecule: CCC(=O)N1[C@@H]2Cn3c(ccc(C4=CCCCC4)c3=O)[C@H]1[C@@H](C(=O)N[C@H](C)c1ccccc1)[C@@H]2CO
  A: 93.3*; B: -2.0; C: 25.9; D: /

Molecule: C[C@@H]1CN([C@H](C)CO)C(=O)c2cc(NC(=O)Nc3ccc(F)cc3)ccc2O[C@H]1CN(C)Cc1ccc(-c2ccccc2)cc1
  A: 0.3; B: 51.4*; C: 0.8; D: /

# The list continues.
# Abbreviations: A = Cneo AK release; B = ERp5 inh; C = UUG fidelity; D = PDI turbidity
Molecule: COCC(=O)N(C)C[C@@H]1Oc2ncc(C#Cc3cccnc3)cc2C(=O)N([C@@H](C)CO)C[C@@H]1C
  A: -0.9; B: -0.8; C: -16.7; D: /

Molecule: CNC[C@@H]1Oc2ccc(NC(=O)Cc3ccccc3)cc2C(=O)N([C@H](C)CO)C[C@@H]1C
  A: 4.9; B: -3.5; C: -6.7; D: /

Molecule: C[C@H]1CN([C@@H](C)CO)C(=O)Cc2cc(NC(=O)CCCCCC(=O)Nc3ccccc3N)ccc2O[C@H]1CN(C)C(=O)Nc1ccccc1
  A: 93.6*; B: 20.9; C: 23.6; D: /

Molecule: C[C@@H]1CN([C@H](C)CO)C(=O)Cc2cc(NC(=O)CCCCCC(=O)Nc3ccccc3N)ccc2O[C@H]1CN(C)C(=O)Nc1ccccc1
  A: 104.9*; B: 0.9; C: 17.3; D: /

Molecule: C[C@@H]1CN([C@H](C)CO)C(=O)c2cc(NC(=O)CCN3CCOCC3)ccc2O[C@H]1CN(C)CC1CCCCC1
  A: -2.3; B: /; C: -5.1; D: /

Molecule: O=C(C[C@H]1CC[C@@H]2[C@H](COC[C@H](O)CN2S(=O)(=O)c2ccc(F)cc2)O1)NCC1CCCCC1
  A: -2.8; B: 5.2; C: 19.8; D: /

Molecule: C[C@@H]1CN([C@H](C)CO)S(=O)(=O)c2ccc(-c3ccc(C#N)cc3)cc2O[C@@H]1CN(C)CC1CC1
  A: -3.1; B: 13.7; C: 1.0; D: /

Molecule: CO[C@@H]1CN(C)C(=O)c2ccc(NC(=O)C3CCCCC3)cc2OC[C@H](C)N(C(=O)c2ccccc2)C[C@@H]1C
  A: -1.7; B: 2.2; C: 18.4; D: /

Molecule: CCCN(C)C[C@H]1OCCCC[C@@H](C)Oc2ccc(NC(=O)NC(C)C)cc2C(=O)N([C@@H](C)CO)C[C@H]1C
  A: 92.0*; B: 3.5; C: /; D: /

Molecule: CC(C)NC(=O)Nc1ccc2c(c1)C(=O)N([C@H](C)CO)C[C@H](C)[C@H](CN(C)C(=O)NC(C)C)OCCCC[C@@H](C)O2
  A: -0.3; B: 3.2; C: /; D: /

Molecule: C[C@H](CO)N1C[C@H](C)[C@H](CN(C)C(=O)NC2CCCCC2)OCCCC[C@H](C)Oc2ccc(NS(=O)(=O)c3cn(C)cn3)cc2C1=O
  A: 90.3*; B: 0.1; C: -1.8; D: /
